For the assay, the species on record is Homo sapiens. Briefly: Selectivity ratio of Ki for human delta opioid receptor to Ki for human kappa opioid receptor.

On to `O=C(O)CCCCCCCCC(=O)Oc1ccc2c(c1)[C@@]13CCCC[C@H]1[C@@H](C2)N(CC1CCC1)CC3`, for which the Ratio Ki came out at 62.
